In ChEMBL document CHEMBL3826913 (Eur J Med Chem, 2016):

Assay: Aqueous solubility of compound
Type: physicochemical
Conditions: buffer

Row | SMILES | solubility
1 | Nc1ccc(-c2nc(O)c3cccc(O)c3n2)cc1 | soluble
2 | Oc1ccc(-c2nc(O)c3cccc(O)c3n2)cc1 | soluble
3 | O=c1[nH]c(-c2ccc(Cl)cc2)nc2c(O)cccc12 | soluble
4 | Oc1nc(-c2ccccc2)nc2c(O)cccc12 | soluble
5 | Cc1ccc(-c2nc3c(O)cccc3c(=O)[nH]2)cc1 | soluble
6 | O=c1[nH]c(-c2ccc(Br)cc2)nc2c(O)cccc12 | soluble
